This test concerns 4T1-luciferase tumor. Kind of test: 4T1-luciferase tumor model with IR, cGAMP and anti-CTLA-4: tumor volume and survival. The format is in vivo, mouse. The note with it: compound 1 in addition to cGAMP, intratumoral after 20 Gy IR.

Each structure is given as a SMILES string.

As to `COc1cc2ncnc(N3CCC(CCP(=O)(O)O)CC3)c2cc1OC` [Compound 1, dimethyl (2-(1-(6,7-dimethoxyquinazolin-4-yl)piperidin-4-yl)ethyl)phosphonic acid], the cure rate came out at 10%.

Source of the values: US11701371B2, “ENPP1 inhibitors and their use for the treatment of cancer” (THE BOARD OF TRUSTEES OF THE LELAND STANFORD JUNIOR …, priority 2017, dated 2023).
